# Binding of CDR-mutated scFvs to a peptide of the spike HR2 region

Values reported by Engelhart et al. 2022, doi:10.1038/s41597-022-01779-4 (FLAb copy).

The target is the same throughout: PDVDLGDISGINAS, from the HR2 region of SARS-CoV-2 spike.

Ab-14 is the parent antibody, in scFv form: VH, then three GGGGS repeats, then VL. The heavy chain is unchanged in all variants.
VH: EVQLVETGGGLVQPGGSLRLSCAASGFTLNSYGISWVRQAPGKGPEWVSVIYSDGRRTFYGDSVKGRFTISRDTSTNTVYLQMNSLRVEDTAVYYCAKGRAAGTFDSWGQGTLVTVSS
VL: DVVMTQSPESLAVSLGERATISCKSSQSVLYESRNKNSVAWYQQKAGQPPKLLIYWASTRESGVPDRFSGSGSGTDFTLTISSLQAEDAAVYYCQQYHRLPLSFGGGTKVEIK

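The parent was found by panning a naive human phage display library on the peptide. The library (AAYL50) carries one to three amino acid substitutions per variant, with no insertions or deletions. Affinity was read by AlphaSeq, a pooled yeast mating assay with surface-displayed partners. After mating in shaken culture at 30 °C for 16 h, diploids were selected and their barcode pairs sequenced. Read counts were normalised to the haploid input and turned into Kd by a linear fit to BCL2-family pairs of known affinity, for each replicate. There are three technical replicates.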

Each variant is given by its three light chain CDRs, as the data file delimits them; those of the parent are KSSQSVLYESRNKNSVA, WASTRES, QQYHRLPLS.
This list gathers variants with a substitution at T59 (VL, numbered from residue 1).
Values are apparent Kd, the geometric mean of the replicates that gave a signal; lower means stronger binding.
A pair that was not seen in any replicate is written "nd"; this usually means weak binding, but a binder can also be missed.

KSCQSVLYESRNKNSVA | WASPRES | QQYHRLPLG: nd (0 of 3 replicates; controls 0 of 9).
KSSQSVLLESRNKNSVA | WASWRES | QQYHRTPLS: nd (0 of 3 replicates; controls 1 of 9).
KNSQSVLYESRNKNSVA | WASVRES | QQPHRLPLS: 10 µM (1 of 3 replicates; controls 2 of 9).
KSSQSVLYESRNKNSVA | WASIRES | FQYHRLPLS: nd (0 of 3 replicates; controls 2 of 9).
KSSQSVLYESRNKNCVA | WASHRES | QVYHRLPLS: 160 µM (2 of 3 replicates; controls 3 of 9).
KSSQSGLYESRNKNSVA | WASIRES | QQYHMLPLS: 2.2 nM (3 of 3 replicates; controls 1 of 9).
KSSQVVLYESRNKNSVA | WASSRES | QQYHRLPLS: nd (0 of 3 replicates; controls 1 of 9).
KSSQSNLYESRNKNSVA | WASYRCS | QQYHRLPLS: 71 nM (3 of 3 replicates; controls 2 of 9).
KSSQSVLYESRNKNSVA | WASFRES | QQYHKNPLS: 310 nM (3 of 3 replicates; controls 7 of 9).
KSSQSVLYESRNKNSVA | WASRRES | QQYHRLPLP: 5.4 µM (1 of 3 replicates; controls 0 of 9).
KSSQSVLYESRNKNSLA | WASMRDS | QQYHRLPLS: nd (0 of 3 replicates; controls 0 of 9).
KSSQSVLCESINKNSVA | WASWRES | QQYHRLPLS: 260 nM (1 of 3 replicates; controls 0 of 9).
GSSQSVLYESRNKNSVA | WASPRES | QQYHRLPLW: 2.5 µM (1 of 3 replicates; controls 1 of 9).
KSSQSVLYESRNKNSVA | WASGRES | QIYHRLPLF: nd (0 of 3 replicates; controls 2 of 9).
KSSQSVLYESRNKNSVR | WASVRES | QQYHRLPLS: 1.4 µM (1 of 3 replicates; controls 3 of 9).
KSSQSVLYESRNKNSVA | WASHRES | QQYHRLGLS: 20 nM (3 of 3 replicates; controls 1 of 9).
KSSQSVLYESRNKNSSA | WASWRES | QQYHRLPFS: nd (0 of 3 replicates; controls 2 of 9).
KSSQSVLYESRNKNSVA | WASSRES | QQYFRSPLS: nd (0 of 3 replicates; controls 0 of 9).
KSSQSDLYFSRNKNSVA | WASERES | QQYHRLPLS: 2.8 nM (3 of 3 replicates; controls 1 of 9).
KSSQSVLYESVNKNSRA | WASNRES | QQYHRLPLS: 2.4 µM (1 of 3 replicates; controls 0 of 9).
KSSQSVLYESRNKNSVA | WASQREA | QQYHRVPLS: nd (0 of 3 replicates; controls 0 of 9).
KSSQYVRYESRNKNSVA | WASVRES | QQYHRLPLS: 18 nM (3 of 3 replicates; controls 1 of 9).
KSSQSVLYESRNYNSVA | WASERES | QQYHRLPLY: 660 nM (3 of 3 replicates; controls 0 of 9).
KSSQSVLYEPRNKNSVA | WASCRES | QQYHRLSLS: 21 µM (2 of 3 replicates; controls 2 of 9).
FSSQSVLYESRNKNSVA | WASMFES | QQYHRLPLS: nd (0 of 3 replicates; controls 4 of 9).
KESQSVLYESRNKNSEA | WASERES | QQYHRLPLS: nd (0 of 3 replicates; controls 0 of 9).
ESSQSVPYESRNKNSVA | WASYRES | QQYHRLPLS: 75 nM (3 of 3 replicates; controls 0 of 9).
KSSQSRLYESRNKNSVA | WASGRES | QKYHRLPLS: 1.6 µM (1 of 3 replicates; controls 2 of 9).
KSSQNVLYERRNKNSVA | WASPRES | QQYHRLPLS: nd (0 of 3 replicates; controls 3 of 9).
KMSQSVLYESRNKNSVA | WASNRES | QQYHRLPLS: 1.6 nM (3 of 3 replicates; controls 3 of 9).
KSSQSVLYESRNKHSVA | WVSHRES | QQYHRLPLS: 430 nM (1 of 3 replicates; controls 0 of 9).
KSSSSTLYESRNKNSVA | WASIRES | QQYHRLPLS: 5.8 nM (3 of 3 replicates; controls 0 of 9).
KSSQSVLYESRNKNSVA | WISQREF | QQYHRLPLS: nd (0 of 3 replicates; controls 1 of 9).
KSSQSVLYESRNKNSVA | WASSGES | QQYHRLDLS: 13 nM (3 of 3 replicates; controls 1 of 9).
KSSQSVHYESRNKNSVA | WASSRES | CQYHRLPLS: 310 nM (3 of 3 replicates; controls 0 of 9).
KSSQSVLYESRNKNSVA | WLSHRES | QQYHRVPLS: 23 µM (2 of 3 replicates; controls 4 of 9).
KSSQSVLYESRNKNSVA | WASLKEH | QQYHRLPLS: 140 nM (3 of 3 replicates; controls 3 of 9).
KSSQSVIYESRNKNSVA | WASERES | QQYHRLPPS: nd (0 of 3 replicates; controls 1 of 9).
KSSQSVLYESRNKNSVA | WAMMRES | QQYHRLPLS: 38 nM (3 of 3 replicates; controls 2 of 9).
KSSQSHLYESRNKNSVA | WASHRES | QQYHRLPLH: 280 nM (2 of 3 replicates; controls 2 of 9).

Background: pairings of library AAYL50 with three empty control strains gave a value in 18% of cases (median 15 µM, 5th percentile 970 nM). Values in that range, when seen in few replicates, are hard to tell from nonspecific mating. Also given: how often the same scFv was detected with the empty control strains.
Parent in this assay: reference entry 4.4 nM, copy in this library 48 nM.